The test concerns the target Nociceptin receptor (Homo sapiens, UniProt P41146). The settings on record: hek293.

A word on the IC50: it is the concentration at which inhibition is half-maximal. High values mean weaker potency, low ones greater potency. `CC(C)[C@H]1CC[C@@H](N2CCC3(CC2)C(=O)N(CCCCCCCCCN(C)C)CN3c2ccccc2)CC1` gave an IC50 of 5.5 nM.

(Values after ChEMBL document CHEMBL1759965, “Synthesis and pharmacological evaluation of bivalent antagonists of the nociceptin opioid receptor” (Eur J Med Chem, 2011).)
